Here are results for 1 compound from ChEMBL document CHEMBL5032523, “Discovery of thiazolidin-4-one analogue as selective GSK-3β inhibitor through structure based virtual screening” (Bioorg Med Chem Lett, 2021).

Protein sequences, listed by entry. Tags and fused reporters are not part of them. Lines headed by an entry give the natural chain unless they say otherwise; changes in a name come on top.
UniProt P49841: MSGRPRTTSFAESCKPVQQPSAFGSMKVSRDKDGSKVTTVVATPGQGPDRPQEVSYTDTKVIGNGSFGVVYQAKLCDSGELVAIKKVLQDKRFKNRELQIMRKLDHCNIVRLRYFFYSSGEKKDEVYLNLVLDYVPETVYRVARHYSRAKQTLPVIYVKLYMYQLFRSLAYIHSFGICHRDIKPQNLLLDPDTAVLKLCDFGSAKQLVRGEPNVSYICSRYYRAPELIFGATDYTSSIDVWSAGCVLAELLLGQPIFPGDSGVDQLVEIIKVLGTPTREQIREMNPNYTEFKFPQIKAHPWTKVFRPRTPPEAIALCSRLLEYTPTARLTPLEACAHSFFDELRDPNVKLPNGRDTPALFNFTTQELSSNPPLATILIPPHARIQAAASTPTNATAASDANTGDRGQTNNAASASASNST

Molecules are shown by their SMILES.

The target of this assay is Glycogen synthase kinase-3 beta (Homo sapiens, UniProt P49841). As to the kind of experiment: Inhibition of GSK3beta (unknown origin).

The term IC50 denotes the concentration at which inhibition is half-maximal. High values mean lower potency, low ones higher potency. As to `O=C1Nc2ccccc2/C1=C1\Nc2ccccc2\C1=N/O`, the IC50 amounted to 55 nM.
